Source: article PMC9160101 (Pharmaceutical Research, 2022)

Amino acid sequences for entries named in this document (tags omitted).
UniProt P11712, whole entry: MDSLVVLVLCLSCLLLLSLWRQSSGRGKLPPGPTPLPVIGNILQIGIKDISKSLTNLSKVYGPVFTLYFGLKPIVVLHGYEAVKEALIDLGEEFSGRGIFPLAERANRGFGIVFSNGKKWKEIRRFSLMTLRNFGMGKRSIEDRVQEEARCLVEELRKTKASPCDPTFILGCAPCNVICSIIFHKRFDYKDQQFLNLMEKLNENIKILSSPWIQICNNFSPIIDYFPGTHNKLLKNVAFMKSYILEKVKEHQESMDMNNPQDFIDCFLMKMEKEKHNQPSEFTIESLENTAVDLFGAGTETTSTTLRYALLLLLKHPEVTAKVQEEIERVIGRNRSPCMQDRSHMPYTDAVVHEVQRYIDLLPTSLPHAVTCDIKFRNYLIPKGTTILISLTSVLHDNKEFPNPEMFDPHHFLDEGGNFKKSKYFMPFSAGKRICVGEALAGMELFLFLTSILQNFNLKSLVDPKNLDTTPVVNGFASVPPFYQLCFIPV
UniProt P33261, whole entry: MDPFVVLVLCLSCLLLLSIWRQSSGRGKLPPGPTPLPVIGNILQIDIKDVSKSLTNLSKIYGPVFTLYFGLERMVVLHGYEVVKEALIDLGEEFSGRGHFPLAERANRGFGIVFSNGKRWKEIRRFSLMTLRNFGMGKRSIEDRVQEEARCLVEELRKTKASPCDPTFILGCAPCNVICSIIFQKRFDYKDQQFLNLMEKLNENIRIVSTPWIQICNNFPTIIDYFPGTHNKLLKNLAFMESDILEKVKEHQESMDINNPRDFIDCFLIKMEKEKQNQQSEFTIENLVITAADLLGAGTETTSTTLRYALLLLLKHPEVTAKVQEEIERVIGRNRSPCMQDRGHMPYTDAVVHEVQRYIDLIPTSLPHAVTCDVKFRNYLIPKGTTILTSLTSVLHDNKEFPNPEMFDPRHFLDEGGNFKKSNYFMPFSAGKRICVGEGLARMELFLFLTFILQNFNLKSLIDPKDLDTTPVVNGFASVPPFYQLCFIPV

Legend:
human liver homogenates = settings: ulotaront 10 µM, 240 min
CYP2C9 = CYP2C9 (Homo sapiens, UniProt P11712); assay: CYP inhibition in HLM
Caco-2 monolayers = assay: SEP-383103 permeability, Caco-2 monolayer system; format: in vitro ADME; settings: 120 min
Experimental: Transport buffer was Hanks Balanced Salt Solution (HBSS) buffered with 10 mM HEPES (N-[2- Hydroxyethyl] piperazine-N’-[2-ethanesulfonic acid]), pH adjusted to 7.4 with NaOH. Receiver solution was prepared by adding 1% organic solvent to transport buffer. The monolayers were incubated on an orbital shaker at 37 °C, with ambient humidity and CO2 for the duration of the transport assay. Samples were collected after 45, 90, and 120 min incubations and concentrations were determined by liquid chromatography with tandem mass spectrometry (LC–MS/MS). SEP-383103 permeability study was conducted at Covance (Madison, Wisconsin) using the Caco-2 monolayer system. SEP-383103 (1 and 5 µM) was added to the apical and basolateral chambers to determine the permeability in the apical to basolateral (A to B), and basolateral to apical (B to A) directional, respectively. Samples were collected after a 120-min incubation at 37 °C, and concentrations were determined by LC–MS/MS.

[1] = mouse, in vivo, 10 mg/kg
CYP1A2 = settings: 0.3 to 100 µM, 3 donors, three days
CYP2C19 = CYP2C19 (Homo sapiens, UniProt P33261); assay: CYP inhibition in HLM
[2] = system: broad panel receptor screen; assay: In vitro broad panel receptor screen; settings: internal data
CYP2B6 [3] = molecular target: T1, CYP2B6 (Homo sapiens, UniProt P20813); settings: HLM
T1 sequence (P20813 1-491): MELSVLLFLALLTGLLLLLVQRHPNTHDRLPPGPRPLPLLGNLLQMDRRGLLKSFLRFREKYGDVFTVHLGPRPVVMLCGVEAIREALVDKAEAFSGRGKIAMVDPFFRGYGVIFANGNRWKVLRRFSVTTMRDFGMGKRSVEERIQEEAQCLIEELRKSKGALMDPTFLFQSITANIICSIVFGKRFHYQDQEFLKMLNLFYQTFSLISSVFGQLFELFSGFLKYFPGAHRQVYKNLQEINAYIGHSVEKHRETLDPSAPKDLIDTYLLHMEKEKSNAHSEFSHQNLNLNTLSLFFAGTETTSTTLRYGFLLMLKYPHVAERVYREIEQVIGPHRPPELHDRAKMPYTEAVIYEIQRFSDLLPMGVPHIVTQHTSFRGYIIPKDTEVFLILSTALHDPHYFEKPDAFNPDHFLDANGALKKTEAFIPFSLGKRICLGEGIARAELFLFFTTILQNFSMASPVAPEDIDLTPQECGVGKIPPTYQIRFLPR

human OAT3 = molecular target: T2, human OAT3 (Homo sapiens, UniProt Q8TCC7); assay: Transporter inhibition, transfected HEK293 cells; settings: 50 µM
T2 sequence (Q8TCC7 1-542): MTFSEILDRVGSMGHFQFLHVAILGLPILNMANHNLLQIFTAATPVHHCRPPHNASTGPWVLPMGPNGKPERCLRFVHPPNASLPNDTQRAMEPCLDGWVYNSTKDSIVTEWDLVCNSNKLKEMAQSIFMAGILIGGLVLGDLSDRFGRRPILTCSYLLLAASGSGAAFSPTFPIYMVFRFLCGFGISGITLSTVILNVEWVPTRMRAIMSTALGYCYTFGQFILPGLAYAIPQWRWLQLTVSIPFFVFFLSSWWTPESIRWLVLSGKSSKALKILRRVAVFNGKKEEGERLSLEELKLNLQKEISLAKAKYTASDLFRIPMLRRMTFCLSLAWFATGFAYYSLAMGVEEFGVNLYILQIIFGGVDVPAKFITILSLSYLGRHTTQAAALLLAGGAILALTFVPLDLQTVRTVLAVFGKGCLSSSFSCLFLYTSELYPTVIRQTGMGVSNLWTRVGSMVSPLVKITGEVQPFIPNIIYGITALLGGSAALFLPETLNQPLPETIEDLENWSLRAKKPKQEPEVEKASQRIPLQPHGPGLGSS

CYP2B6 [4] = settings: 0.3 to 100 µM, 3 donors, three days
human MATE1 = molecular target: T3, human MATE1 (Homo sapiens, UniProt Q96FL8); assay: Transporter inhibition, transfected HEK293 cells; settings: 50 µM
T3 sequence (Q96FL8 1-570): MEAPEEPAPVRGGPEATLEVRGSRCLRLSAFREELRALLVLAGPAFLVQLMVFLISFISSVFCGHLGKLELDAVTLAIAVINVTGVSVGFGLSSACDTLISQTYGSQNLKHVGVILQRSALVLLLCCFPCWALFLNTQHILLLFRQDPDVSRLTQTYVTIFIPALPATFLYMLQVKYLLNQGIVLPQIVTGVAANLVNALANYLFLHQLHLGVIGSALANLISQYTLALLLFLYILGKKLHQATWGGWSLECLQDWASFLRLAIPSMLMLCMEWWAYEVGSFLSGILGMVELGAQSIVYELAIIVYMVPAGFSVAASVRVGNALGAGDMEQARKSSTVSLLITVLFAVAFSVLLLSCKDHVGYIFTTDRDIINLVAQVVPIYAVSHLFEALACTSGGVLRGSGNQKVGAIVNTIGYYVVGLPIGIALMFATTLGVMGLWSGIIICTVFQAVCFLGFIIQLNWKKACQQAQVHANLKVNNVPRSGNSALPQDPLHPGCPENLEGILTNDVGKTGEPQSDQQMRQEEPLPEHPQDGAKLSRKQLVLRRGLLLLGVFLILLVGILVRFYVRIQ

[5] = 30 min preincubation without and with NADPH

NCC1OCCc2ccsc21 (centres unmarked) [SEP-363854]
metabolite formation in presence vs absence of NADPH (human liver homogenates): predominately formed in the presence of NADPH

O=C(O)[C@@H]1OCCc2ccsc21 [SEP-383103]
direct inhibition (CYP2C9; 0.1 to 100 µM): did not show direct or time dependent inhibition
time-dependent inhibition (CYP2C9; [5]): did not show direct or time dependent inhibition
efflux ratio (Caco-2 monolayers; 1 µM): 1.2
mean permeability A-B (Caco-2 monolayers; 1 µM): 2.3 × 10^–6 cm/sec
mean permeability B-A (Caco-2 monolayers; 1 µM): 2.7 × 10^–6 cm/sec
efflux ratio (Caco-2 monolayers; 5 µM): 1.9
mean permeability A-B (Caco-2 monolayers; 5 µM): 1.3 × 10^–6 cm/sec
mean permeability B-A (Caco-2 monolayers; 5 µM): 2.4 × 10^–6 cm/sec
AUCinf B/P ratio ([1]; ip): 0.03
AUCinf B/P ratio ([1]; po): 0.04
induction of mRNA expression or enzymatic activity (CYP1A2): did not induce
direct inhibition (CYP2C19; 0.1 to 100 µM): did not show direct or time dependent inhibition
time-dependent inhibition (CYP2C19; [5]): did not show direct or time dependent inhibition
activity in broad panel receptor screen [2]: no significant activities
time-dependent inhibition (CYP3A4/5): did not show direct or time dependent inhibition
direct inhibition (CYP2B6 [3]; 0.1 to 100 µM): did not show direct or time dependent inhibition
time-dependent inhibition (CYP2B6 [3]; [5]): did not show direct or time dependent inhibition
inhibition (human OAT3): ~ 35%
induction of mRNA expression or enzymatic activity (CYP2B6 [4]): did not induce
inhibition (human MATE1): ~ 20%

NNCCc1ccccc1 [phenelzine]
inhibition of SEP-363854 formation (human liver homogenates; phenelzine 10 µM, no NADPH): 20%
inhibition of SEP-383103 formation (human liver homogenates; phenelzine 10 µM, no NADPH): 51%

Where two headings read alike, the source gives them in different places.
